# Biological target: PPARγ (Homo sapiens, UniProt P37231)
# Chains of the proteins cited; added tags and fusions are not shown. Residues count along the entry.
# UniProt P37231, 29-505: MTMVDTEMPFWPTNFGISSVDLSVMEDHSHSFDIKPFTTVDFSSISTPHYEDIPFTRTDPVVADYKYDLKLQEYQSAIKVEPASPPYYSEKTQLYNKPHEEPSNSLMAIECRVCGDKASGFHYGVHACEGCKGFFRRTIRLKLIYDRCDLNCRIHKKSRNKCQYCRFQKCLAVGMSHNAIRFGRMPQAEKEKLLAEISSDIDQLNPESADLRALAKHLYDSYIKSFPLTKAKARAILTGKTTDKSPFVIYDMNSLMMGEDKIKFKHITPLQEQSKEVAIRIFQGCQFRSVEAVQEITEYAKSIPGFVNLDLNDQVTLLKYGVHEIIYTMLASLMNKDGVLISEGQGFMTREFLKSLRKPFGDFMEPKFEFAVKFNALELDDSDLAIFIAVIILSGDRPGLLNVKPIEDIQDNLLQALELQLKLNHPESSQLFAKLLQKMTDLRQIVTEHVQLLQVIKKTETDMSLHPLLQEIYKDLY
# Format: cell-based
structure (smiles),measurement,value
"CCCCC/C=C(\C/C=C\CCCCCCCC(=O)O)[N+](=O)[O-] [12-NO2-linoleic acid, (9Z,12E)-12-nitrooctadeca-9,12-dienoic acid]",EC50 fold lower than those of 9/10-NO2-LA and 13-NO2-LA,more than 10 fold
